This is an account of results in paper PMC7140522, “The Pyrazolo[3,4-d]pyrimidine Derivative, SCO-201, Reverses Multidrug Resistance Mediated by ABCG2/BCRP” (Cells, 2020).

For this test, the system named is MDCK-II-WT cells. The test can be described thus: MDR reversal analysis with MTT assay, MDCK-II-WT. The test is classed as cell-based, canine. As to conditions: Canis lupus familiaris, 72 h drug exposure, read-out: IC50 Value for Each Cell Line: MDCK-II-WT. How it is done: Control conditions consisted of full growth medium. All treatments were performed in triplicate.
(In general: Tetrazolium dyes change colour on reduction, which living cells bring about.)

For orientation: IC50 means the concentration at which inhibition is half-maximal. Regarding `CCc1c2c(nc3ccc(O)cc13)-c1cc3c(c(=O)n1C2)COC(=O)[C@]3(O)CC` [SN-38, 7-Ethyl-10-hydroxycamptothecin], the concentration for half-maximal inhibition (IC50) is 214 ± 23 nM.
